Data reported in patent US6476021B1 (priority 1997, dated 2002).

By UniProt entry, the sequences of proteins in these tests, tags left out. Residues count along the entry.
UniProt P11541, 2-856: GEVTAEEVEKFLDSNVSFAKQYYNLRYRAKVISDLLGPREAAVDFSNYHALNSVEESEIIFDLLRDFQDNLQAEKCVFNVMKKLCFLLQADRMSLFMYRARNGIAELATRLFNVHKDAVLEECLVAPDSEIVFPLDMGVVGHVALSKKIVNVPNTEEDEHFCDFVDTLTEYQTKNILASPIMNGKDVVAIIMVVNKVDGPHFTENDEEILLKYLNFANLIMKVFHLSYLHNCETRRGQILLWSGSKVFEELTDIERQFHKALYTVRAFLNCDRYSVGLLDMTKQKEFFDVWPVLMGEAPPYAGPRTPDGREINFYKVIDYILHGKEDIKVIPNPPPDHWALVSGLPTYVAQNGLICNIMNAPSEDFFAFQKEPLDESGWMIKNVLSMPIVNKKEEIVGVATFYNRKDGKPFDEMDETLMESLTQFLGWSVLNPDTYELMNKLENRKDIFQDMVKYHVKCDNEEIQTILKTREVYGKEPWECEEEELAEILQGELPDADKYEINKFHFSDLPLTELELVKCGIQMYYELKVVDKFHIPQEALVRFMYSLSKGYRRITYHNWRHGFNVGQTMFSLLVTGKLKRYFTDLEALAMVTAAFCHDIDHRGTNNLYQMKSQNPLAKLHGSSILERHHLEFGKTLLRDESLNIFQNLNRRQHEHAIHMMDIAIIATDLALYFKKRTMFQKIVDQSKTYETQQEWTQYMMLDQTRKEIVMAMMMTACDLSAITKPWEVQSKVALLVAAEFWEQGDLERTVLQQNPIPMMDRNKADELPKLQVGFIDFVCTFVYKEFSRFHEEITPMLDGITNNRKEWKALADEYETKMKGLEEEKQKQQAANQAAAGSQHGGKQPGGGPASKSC
UniProt P23439, 2-850: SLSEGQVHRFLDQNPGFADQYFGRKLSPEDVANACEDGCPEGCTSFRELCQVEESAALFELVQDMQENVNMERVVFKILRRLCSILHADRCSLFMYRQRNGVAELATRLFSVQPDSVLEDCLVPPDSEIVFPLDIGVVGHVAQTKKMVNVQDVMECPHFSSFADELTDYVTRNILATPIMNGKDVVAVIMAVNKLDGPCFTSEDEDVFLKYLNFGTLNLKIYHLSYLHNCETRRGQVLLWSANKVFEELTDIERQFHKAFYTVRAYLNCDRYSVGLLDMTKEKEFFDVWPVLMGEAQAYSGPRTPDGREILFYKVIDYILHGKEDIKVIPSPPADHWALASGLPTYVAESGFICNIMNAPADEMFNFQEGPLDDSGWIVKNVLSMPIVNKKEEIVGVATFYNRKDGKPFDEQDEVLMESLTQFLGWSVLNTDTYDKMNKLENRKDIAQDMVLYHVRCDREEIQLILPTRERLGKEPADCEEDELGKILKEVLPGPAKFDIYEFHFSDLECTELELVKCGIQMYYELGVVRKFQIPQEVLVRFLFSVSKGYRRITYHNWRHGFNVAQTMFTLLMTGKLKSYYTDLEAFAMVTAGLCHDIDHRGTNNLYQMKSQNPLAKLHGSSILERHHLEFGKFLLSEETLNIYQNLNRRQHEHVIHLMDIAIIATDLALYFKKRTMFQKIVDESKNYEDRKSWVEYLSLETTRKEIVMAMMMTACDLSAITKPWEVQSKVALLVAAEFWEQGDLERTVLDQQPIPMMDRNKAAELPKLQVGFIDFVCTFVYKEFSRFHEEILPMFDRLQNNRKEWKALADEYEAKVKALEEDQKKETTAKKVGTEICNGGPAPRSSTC

Experiments:
PDE type V = PDE type V (Canis lupus familiaris, UniProt O77746); assay: biochemical
PDE type VI = PDE type VI (Bos taurus, UniProt P11541+P23439); assay: biochemical

SMILES | IC50 (PDE type V) [nM] | IC50 (PDE type VI) [nM]
O=c1c(Cc2cccnc2)cn2c3cc(Br)ccc3c(=O)c3cc(OCCCO)cc1c32 [Example 34, 10-bromo-5-(3-hydroxypropyloxy)-2-(3-pyridylmethyl)-3H,7H-pyrido[3,2,1-de]acridin-3,7-dione] | 2.5 | 25
O=c1c(Cc2cccnc2)cn2c3c(cc(OCc4ccccn4)cc13)Sc1ccc(Br)cc1-2 [Example 44, 10-bromo-2-(3-pyridylmethyl)-5-(2-pyridylmethyloxy)-3H-pyrido[3,2,1-kl]phenothiazin-3-one] | 4.1 | 38
O=c1c(Cc2cccnc2)cn2c3c(cc(OCCN4CCCCC4)cc13)Sc1ccc(Br)cc1-2 [Example 50] | 11 | 250
